From PubChem BioAssay
Lamin A splicing = changes lamin A minigene splicing in HeLa cells; HeLa LMNA splicing GFP/RFP minigene ratio, 48 h; AID 1487; hit rate 0.01% among 200,000; Potency, µM (highest dose often 46.1 µM), for the others: at the top dose ratio change, negative = inhibition, actives largely listed as inhibitors; active = well fitted inhibition curve with a large enough effect in the signal ratio, with a control signal flat, not every such curve was filed as active; inconclusive = small, poorly fitted or top-dose-only effect, or effect the other way, or a change in a side signal; the % refers to the signal ratio; note: potency is the fitted concentration of half-maximal effect; % is set by controls: 0 for no effect and ±100 for the full control effect
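S3 HeLa stable clones carrying a lamin A-EGFP splicing minigene plus DsRed2 were seeded at 600 cells/well in Opti-MEM with 2% FBS, pin-dosed and incubated 48 h at 37°C. Acumen cytometry (488 nm) gave the GFP/RFP total-intensity ratio.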
KDM4E inh = JMJD2E (human) inhibition | B2RXH2 | JMJD2E catalytic domain, FDH-coupled NADH fluorescence (FDH is formaldehyde dehydrogenase) | Potency, µM (doses to about 57.1 µM), for the others: at the highest dose activity change, negative = inhibition, usual class: inhibitors | hit rate 1.6% among 230,000; active = well fitted inhibition curve with a large enough effect, not every such curve was filed as active; inconclusive = small, poorly fitted or top-dose-only effect, or another doubt; inactive = no such curve, though single readings can be large or run the other way;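 note: potency is the fitted concentration of half-maximal effect; 0% = wells with enzyme and -100% = buffer wells without enzyme; nearly all actives have a fitted effect of over 50% in size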
Sfp PPTase inh = qHTS Assay for Inhibitors of Bacillus subtilis Sfp phosphopantetheinyl transferase (PPTase); 4'-phosphopantetheinyl transferase ffp (Bacillus subtilis), Q9F4F7; Biochemical Sfp PPTase activity, qHTS; Potency, µM, for inactives: max response, negative = inhibition, most hits filed as inhibitors; hit rate 3.5% among 310,000; AID 1490, 2009; active = well fitted inhibition curve with a large enough effect; inconclusive = small, poorly fitted or top-dose-only effect, or another doubt; inactive = no such curve, though single readings can be large or run the other way;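 also: the enzyme is Sfp with the accession as filed and its product quenches rhodamine fluorescence; potency is read from the fitted curve at half-maximal effect; 0% = enzyme reaction without inhibitor and -100% = no enzyme wells; top concentration of the series not given in the record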
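Step 1, compound plus 15 nM Sfp-PPTase, 15 min, room temperature. Step 2, add rhodamine-CoA (5 uM) and BHQ-2-YbbR (12.5 uM). Step 3, read 525/598 nm fluorescence at 0 and 30 min.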
ALDH1A1 block = blocks purified human ALDH1A1 activity; AID 1030; P00352; Purified ALDH1A1, NADH fluorescence, propionaldehyde substrate; hit rate 7.3% among 220,000; Potency, µM (series often up to 75.3 µM), inactives show at the top dose activity, negative = inhibition, actives largely listed as inhibitors; active = well fitted inhibition curve with a large enough effect, not every such curve was filed as active; inconclusive = small, poorly fitted or top-dose-only effect, or another doubt; inactive = no such curve, though single readings can be large or run the other way;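 note: potency is the fitted concentration of half-maximal effect; plate controls were no enzyme wells and a reference inhibitor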
G9a block = inhibitors of human histone lysine methyltransferase G9a. Q96KQ7. G9a H3K9 monomethylation, AlphaScreen, 2 h. Potency, µM (top dose mostly 102 µM), without a hit: at the top dose activity, negative = inhibition, most hits filed as inhibitors. hit rate 8.8% among 350,000; note: potency is the fitted concentration of half-maximal effect; % is set by controls: 0 for no effect and ±100 for the full control effect; nearly all actives have a fitted effect of over 75% in size
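Quantitative HTS format: methyltransferase activity on a biotin-tagged H3K9 peptide is measured by AlphaScreen, using a rabbit anti-monomethyl-H3K9 antibody with streptavidin donor and anti-IgG acceptor beads. Final levels are 20 nM enzyme, 500 nM peptide, 20 uM SAM; 2 h RT.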
miR-21 FLuc = raises the signal of a miR-21 reporter | HeLa miR-21 FLuc reporter, luciferase, 48 h | Potency, µM (doses to about 38.3 µM), without a hit: at the top dose reporter change, positive = more light | 340,000 tested, under 10 active | AID 2288; active = well fitted rising curve with a large enough effect; inconclusive = small, poorly fitted or top-dose-only effect; inactive = no such curve, though single readings can be large or run the other way;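 note: % of control where 0% means no effect; miR-21 action dims this reporter so a rising signal means less miR-21 action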
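Using DMEM plus 10% FBS, HeLa miR-21-FLuc cells are incubated with test compounds (final up to about 40uM) for 48 hours; firefly luciferase signal is then imaged following reagent-mediated lysis.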
An asterisk follows results filed as active; ? = inconclusive; / = no result given; [ ] = remark or other dose. Most compounds without a hit are left out; they make up all but 13% or so of the library. Unless noted, calls come from the whole dose curve; as a rule, active = well fitted curve in the direction sought with a large enough effect; inconclusive = small, poorly fitted or top-dose-only effect, or another doubt; inactive = no such curve, though single readings can be large; an effect the other way counts as inactive or inconclusive.

1) CC(C)Oc1cccc(-c2nnc(SCC(=O)Nc3ccc4c(c3)OCCO4)n2N)c1
2) Nn1c(SCC(=O)Nc2ccc3c(c2)OCCO3)nnc1-c1ccncc1
3) Cc1cc(NC(=O)CSc2nnc(-c3ccncc3)n2N)ccc1Br
4) CC(Sc1nnc(-c2cccnc2)n1N)C(=O)Nc1ccc2c(c1)OCCO2 (configuration not stated)
5) Cc1nc2ccccc2c(=O)n1/N=C/c1ccc(C(C)C)cc1
6) CCc1ccc(S(=O)(=O)c2nnn3c2nc(NCc2cccs2)c2sccc23)cc1
7) COc1cc(/C=C/C(=O)c2ccc3c(c2)OCCO3)cc(Br)c1OCC(=O)N(C)C
8) COC(=O)C(C(=O)OC)C(c1ccccc1)C(C(=O)c1ccccc1)[N+](=O)[O-] (configuration not stated)

Screen / compound no. | 1 | 2 | 3 | 4 | 5 | 6 | 7 | 8
Lamin A splicing | -3.1% | / | 2.6% | / | / | / | / | /
KDM4E inh | -8.2% | / | -0.7% | / | / | / | / | -8.5%
Sfp PPTase inh | 2.0% | 0.9% | -27.2% | / | -13.0% | / | -12.8% | 4.5%
ALDH1A1 block | 12.6µM* | / | ? | / | / | / | / | /
G9a block | ? | / | 35.5µM* | 56.2µM* | 25.8% | -30.5%[59 µM] | -77.2% | 50.1µM*
miR-21 FLuc | -6.1% | -3.6% | -8.2% | / | -27.6% | -22.7% | ? | 4.8%

9) C=CCOC(=O)N[C@@H](c1ccccc1)[C@@H](C)[N+](=O)[O-]
10) CC1CCCN(S(=O)(=O)c2ccc(NC(=O)c3cccc(-n4cnnn4)c3)cc2)C1 (configuration not stated)
11) COc1ccc(C(=O)Nc2ccc(S(=O)(=O)N3CCCCC3C)cc2)c(OC)c1OC (configuration not stated)
12) CC(=O)Nc1ccc(S(=O)(=O)Nc2cccc(-n3cnnn3)c2)cc1
13) CC1CCCCN1S(=O)(=O)c1ccc(NC(=O)c2cccc(-n3cnnn3)c2)cc1 (configuration not stated)
14) CC1CCCCN1S(=O)(=O)c1ccc(C(=O)N2CCOCC2)cc1 (configuration not stated)
15) CC(=O)c1ccc(S(=O)(=O)Nc2cccc(-n3cnnn3)c2)cc1
16) COc1cc(C(=O)Nc2ccc(S(=O)(=O)N3CCCCC3C)cc2)cc(OC)c1OC (configuration not stated)

Screen / compound no. | 9 | 10 | 11 | 12 | 13 | 14 | 15 | 16
Lamin A splicing | / | -10.1% | ? | / | -18.1% | / | / | ?
KDM4E inh | 7.8% | -2.7% | ? | / | -9.9% | / | / | -11.0%
Sfp PPTase inh | -9.9% | 1.7% | ? | 16.7% | 9.1% | 18.1% | 5.9% | 2.7%
ALDH1A1 block | 9.1% | ? | 17.8µM* | / | 25.1µM* | / | / | ?
G9a block | / | -15.6%[12.7 µM] | -31.1%[59 µM] | -6.7% | 11.9% | 56.2µM* | 39.8µM* | 3.9%[59 µM]
miR-21 FLuc | / | 17.6% | 17.0% | -0.7% | -4.9% | 3.7% | -0.9% | 18.5%

17) O=C1CCC(C(=O)N2CCC(CO)CC2)CN1Cc1ccc(Cl)cc1 (configuration not stated)
18) CCCCSCCCNC(=O)C1CCN(Cc2nc(-c3ccc(CC)cc3)oc2C)CC1
19) Cc1cc(NC(=O)c2cccn2-c2nnc(N3CCCCC3)s2)ccc1Br
20) CN(C)CCNC(=O)Cc1ccc(NC(=O)N2CCCCc3ccccc32)cc1
21) Cc1ccc2nc(C3CCN(CC(=O)N4CCCCCC4)CC3)[nH]c2c1
22) Cc1ccc2nc(C3CCN(C(=O)c4ccco4)CC3)[nH]c2c1
23) Cc1nc2ccccc2c2oc(C(=O)N3CCN(C(=O)c4ccco4)CC3)cc12
24) Cc1nc2ccccc2c2oc(C(=O)N3CCC(C)CC3)cc12

Screen / compound no. | 17 | 18 | 19 | 20 | 21 | 22 | 23 | 24
Lamin A splicing | / | / | / | 0.9%[46 µM] | 1.8% | 6.6% | -17.4% | /
KDM4E inh | / | / | / | / | 0.1% | 0.9% | -5.9% | /
Sfp PPTase inh | -0.6% | / | / | / | 2.1% | 9.8% | 70.8µM* | 9.1%
ALDH1A1 block | / | / | / | / | -16.3% | -0.9% | ? | /
G9a block | 32.8% | -33.5%[59 µM] | -24.1%[59 µM] | -4.4%[59 µM] | 10.4%[59 µM] | 56.2µM* | -31.7%[59 µM] | 20.4%
miR-21 FLuc | -1.6% | 0.1% | -9.3% | 2.1% | -10.4% | -5.4% | 1.8% | -14.1%

25) Cc1nc2ccccc2c2oc(C(=O)N3CCc4ccccc4C3)cc12
26) O=c1c(N2CCOCC2)coc2ccccc12
27) O=C(NCCCN1CCOCC1)c1coc2ccccc2c1=O
28) COc1cccc(-c2ccc(NC(=O)C3CCCN(Cc4cnc(C)s4)C3)cc2)c1 (configuration not stated)
29) COc1cc(/C=c2\sc3n(c2=O)C(c2ccccc2)C(c2ccccc2)=NN=3)ccc1O (configuration not stated)
30) COc1cc(/C=C2\C(=O)ON=C2c2ccccc2)cc(Cl)c1O
31) CCCCOc1c(Br)cc(/C=C2\N=C(C)OC2=O)cc1OCC
32) COc1cc(/C=C2/C(=O)ON=C2c2ccccc2)ccc1O

Screen / compound no. | 25 | 26 | 27 | 28 | 29 | 30 | 31 | 32
Lamin A splicing | ? | / | 3.9% | / | ? | -4.8%[46 µM] | -12.3% | ?
KDM4E inh | 0.4% | ? | 6.1% | / | -2.4% | ? | 0.8% | -1.8%
Sfp PPTase inh | -6.6% | -3.4% | 17.1% | 10.4% | -3.7% | -31.1% | 11.3% | 50.1µM*
ALDH1A1 block | 25.1µM* | ? | 13.0% | / | -2.2% | ? | ? | ?
G9a block | ? | 3.55µM* | 11.8%[59 µM] | -0.9% | ? | 35.5µM* | -21.9% | ?
miR-21 FLuc | 28.2% | -1.9% | -12.7% | 10.2% | 3.2% | 2.0% | -1.3% | -17.6%

3 records picked at random from those above:
29) COc1cc(/C=c2\sc3n(c2=O)C(c2ccccc2)C(c2ccccc2)=NN=3)ccc1O (configuration not stated)
28) COc1cccc(-c2ccc(NC(=O)C3CCCN(Cc4cnc(C)s4)C3)cc2)c1 (configuration not stated)
30) COc1cc(/C=C2\C(=O)ON=C2c2ccccc2)cc(Cl)c1O

Screen / compound no. | 29 | 28 | 30
Lamin A splicing | ? | / | -4.8%[46 µM]
KDM4E inh | -2.4% | / | ?
Sfp PPTase inh | -3.7% | 10.4% | -31.1%
ALDH1A1 block | -2.2% | / | ?
G9a block | ? | -0.9% | 35.5µM*
miR-21 FLuc | 3.2% | 10.2% | 2.0%

Other structures.
33) COc1cc(/C=C/c2nc3ccccc3c(=O)[nH]2)cc(Cl)c1O
34) CCOc1cc(/C=C2\C(=O)ON=C2c2ccccc2)cc(Br)c1O
35) COc1cc(/C=C2\C(=O)ON=C2c2ccccc2)cc(Br)c1O
36) CCOc1cc(/C=C2/C(=O)ON=C2C)cc(Br)c1O
37) COc1cc(C=C2C(=O)OC(c3ccccc3)OC2=O)cc(Br)c1O (configuration not stated)
38) CCN(CC(=O)NC(C)(C)C)C(=O)c1ccc2c(c1)S(=O)(=O)c1ccccc1C2=O
39) COc1cc(/C=N/NC(=Nc2ccc(C)cc2)c2nc3ccccc3s2)ccc1O
40) O=C(O)c1ccc(C=C(c2nc3ccccc3s2)c2nc3ccccc3s2)cc1

Screen / compound no. | 33 | 34 | 35 | 36 | 37 | 38 | 39 | 40
Lamin A splicing | / | / | / | / | / | / | -15.8% | -25.1%[46 µM]
KDM4E inh | / | / | / | / | -6.7% | 4.1% | -17.6% | 3.7%
Sfp PPTase inh | -8.9% | 79.4µM* | ? | -28.4% | 1.6% | 24.1% | -14.5% | -2.5%
ALDH1A1 block | / | / | / | / | 7.5% | -9.0% | -7.2% | -11.4%
G9a block | ? | 25.1µM* | 35.5µM* | 44.7µM* | ? | -4.7% | 14.1µM* | ?
miR-21 FLuc | -8.4% | -2.5% | -5.1% | -0.1% | -3.2% | -13.0% | -25.7% | -7.2%

41) COc1cc(C=C(c2nc3ccccc3s2)c2nc3ccccc3s2)cc(OC)c1O
42) O=C(O)C/C(=C\c1cc2c(cc1Br)OCO2)c1nc2ccccc2s1
43) COc1cc(/C=C(\CC(=O)O)c2nc3ccccc3s2)cc(OC)c1O
44) Brc1cc2c(cc1/C=N/Nc1nc3ccccc3s1)OCO2
45) COC(=O)C1=C(C(=O)OC)[C@@H]2N(Cc3ccccc3)c3ccccc3[C@@]23C[C@@H](C(=O)OC)N(S(=O)(=O)c2ccc(OC)cc2)C3=N1

Screen / compound no. | 41 | 42 | 43 | 44 | 45
Lamin A splicing | -24.6% | / | / | ? | 2.6%[9.22 µM]
KDM4E inh | -24.2% | / | ? | 3.4% | -1.5%[11.4 µM]
Sfp PPTase inh | -12.0% | ? | 35.5µM* | -25.7% | -13.0%
ALDH1A1 block | -2.7% | / | ? | -2.9% | 2.1%[13.5 µM]
G9a block | 6.31µM* | 10µM* | 14.1µM* | 24.8% | /
miR-21 FLuc | -8.5% | 0.1% | -1.4% | -42.6% | /
